Protein sequences, listed by entry. Tags and fused reporters are not part of them.
UniProt O75116, whole entry: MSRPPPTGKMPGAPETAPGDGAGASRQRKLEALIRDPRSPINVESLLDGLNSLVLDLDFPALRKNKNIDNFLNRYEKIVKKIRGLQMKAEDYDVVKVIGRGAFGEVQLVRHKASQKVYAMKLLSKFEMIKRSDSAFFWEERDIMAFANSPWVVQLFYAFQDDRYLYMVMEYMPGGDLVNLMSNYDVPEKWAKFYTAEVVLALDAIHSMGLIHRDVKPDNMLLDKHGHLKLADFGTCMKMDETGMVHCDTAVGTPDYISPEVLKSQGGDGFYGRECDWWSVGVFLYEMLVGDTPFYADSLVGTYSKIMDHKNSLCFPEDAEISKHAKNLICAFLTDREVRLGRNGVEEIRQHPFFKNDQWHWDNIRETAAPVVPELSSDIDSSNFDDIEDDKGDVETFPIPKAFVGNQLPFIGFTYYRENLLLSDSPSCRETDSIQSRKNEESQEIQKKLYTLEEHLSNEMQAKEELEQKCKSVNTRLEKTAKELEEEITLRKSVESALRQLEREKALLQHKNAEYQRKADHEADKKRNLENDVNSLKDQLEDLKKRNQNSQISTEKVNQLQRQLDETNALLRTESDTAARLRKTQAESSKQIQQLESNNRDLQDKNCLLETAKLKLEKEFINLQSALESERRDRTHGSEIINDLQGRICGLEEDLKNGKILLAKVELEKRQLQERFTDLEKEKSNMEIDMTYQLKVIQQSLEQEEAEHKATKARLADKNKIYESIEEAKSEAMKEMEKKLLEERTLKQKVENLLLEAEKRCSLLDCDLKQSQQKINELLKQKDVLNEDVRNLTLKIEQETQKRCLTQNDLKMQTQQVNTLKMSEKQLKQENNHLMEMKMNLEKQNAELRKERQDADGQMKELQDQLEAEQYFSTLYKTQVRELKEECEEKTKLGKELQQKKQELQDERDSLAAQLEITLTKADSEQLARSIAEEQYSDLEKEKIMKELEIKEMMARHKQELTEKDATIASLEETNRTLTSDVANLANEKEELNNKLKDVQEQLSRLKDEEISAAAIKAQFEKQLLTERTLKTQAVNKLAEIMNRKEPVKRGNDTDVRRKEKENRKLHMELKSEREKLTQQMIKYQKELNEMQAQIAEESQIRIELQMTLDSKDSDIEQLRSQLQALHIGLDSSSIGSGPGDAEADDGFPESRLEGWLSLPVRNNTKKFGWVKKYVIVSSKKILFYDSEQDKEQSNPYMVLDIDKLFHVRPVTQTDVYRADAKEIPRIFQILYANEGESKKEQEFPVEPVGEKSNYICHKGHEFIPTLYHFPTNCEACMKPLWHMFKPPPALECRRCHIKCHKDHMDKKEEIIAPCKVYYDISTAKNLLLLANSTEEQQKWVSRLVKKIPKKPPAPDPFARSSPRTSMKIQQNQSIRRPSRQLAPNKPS

According to patent US10123993B2, “Cyclic ureas as inhibitors of rock” (BRISTOL-MYERS SQUIBB COMPANY, priority 2015, dated 2018):

Biological target: ROCK2 (Homo sapiens, UniProt O75116)
Assay: ROCK2 kinase inhibition assay (Caliper LABCHIP, FITC peptide substrate)
Conditions: read-out: ROCK2 IC50; 5 μM ATP, 1.5 μM peptide substrate; value ranges

`COc1cccc(CN2CCN(c3ccc(-c4ccnc5[nH]ccc45)c(OC)n3)C2=O)c1` was tested, and the IC50 was 20.1 to 200 nM.
